{"source": "patent US8637026B2", "about": "“Anti-C35 antibody combination therapies and methods” (Vaccinex, Inc., priority 2007, dated 2014)", "key": {"[1]": {"test_system": "BT474 cells", "experiment": "AnnexinV/Sytox Green FACS and anti-C35 surface staining of trastuzumab-treated BT474 cells (Example 3)", "assay_type": "cell-based, human", "settings": "4 ug/ml, 5 days"}, "[2]": {"test_system": "metastatic breast cancer", "settings": "cited from earlier work"}, "[3]": {"settings": "monotherapy, metastatic breast cancer patients"}}}
{"substance": "trastuzumab: recombinant humanized monoclonal anti-HER2 antibody (Herceptin, Genentech)", "values": [{"measurement": "C35 translocation to the outer cell membrane (anti-C35 antibody staining)", "setting": "[1]", "value": "translocate the C35 protein to the outer cell membrane"}, {"measurement": "Percentage of cells Dead (AnnexinV+/Sytox Green hi)", "setting": "[1]", "value": 4.28, "unit": "%"}, {"measurement": "Percentage of cells Early Apoptotic (AnnexinV+/Sytox Green−)", "setting": "[1]", "value": 0.65, "unit": "%"}, {"measurement": "Percentage of cells Late Apoptotic (AnnexinV+/Sytox Green low)", "setting": "[1]", "value": 2.91, "unit": "%"}, {"measurement": "patients progression free", "setting": "[2]; at 5.8 months", "value": "Twenty-four"}, {"measurement": "median duration of response", "setting": "[2]; [3]", "value": 9.1, "unit": "months"}, {"measurement": "median survival", "setting": "[2]; [3]", "value": 12.8, "unit": "months"}, {"measurement": "overall response rate", "setting": "[2]; [3]", "value": 14, "unit": "%"}, {"measurement": "partial responders", "setting": "[2]; [3]", "value": 12, "unit": "%"}]}
